The experiment addresses PAR4 (protease-activated receptor 4) (human) (UniProt Q96RI0). Nature of the experiment: cell-based or functional assay.

Among the data in patent US20080214451A1 are EC50 of thrombin activation of PAR4-dependent aggregation of human platelets, with bivalirudin alone or bivalirudin plus RWJ-56110; similar with PAR1-Ab values, retold here.

Regarding “thrombin (from UniProt P00734 328-622) (enzyme)”, the EC50 of thrombin activation of PAR4-dependent aggregation of human platelets, with bivalirudin alone or bivalirudin plus RWJ-56110; similar with PAR1-Ab fell in the range of 10 to 11 nM.
